Measurements published in article PMC6796883, “Molecular basis for hierarchical histone de-β-hydroxybutyrylation by SIRT3” (Cell Discovery, 2019).

Chains of the proteins cited; added tags and fusions are not shown. Residues count along the entry.
UniProt Q8IXJ6, 34-356, stated change not applied: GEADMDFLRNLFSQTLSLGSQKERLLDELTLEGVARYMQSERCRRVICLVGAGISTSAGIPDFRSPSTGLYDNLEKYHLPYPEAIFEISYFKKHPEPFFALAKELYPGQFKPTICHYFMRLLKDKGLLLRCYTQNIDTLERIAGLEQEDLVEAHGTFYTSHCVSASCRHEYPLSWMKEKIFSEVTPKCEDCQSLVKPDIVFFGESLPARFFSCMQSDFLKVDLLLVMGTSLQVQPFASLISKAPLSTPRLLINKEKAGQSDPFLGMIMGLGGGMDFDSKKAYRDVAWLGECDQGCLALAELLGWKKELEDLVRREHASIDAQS
UniProt Q9NTG7, 2-399: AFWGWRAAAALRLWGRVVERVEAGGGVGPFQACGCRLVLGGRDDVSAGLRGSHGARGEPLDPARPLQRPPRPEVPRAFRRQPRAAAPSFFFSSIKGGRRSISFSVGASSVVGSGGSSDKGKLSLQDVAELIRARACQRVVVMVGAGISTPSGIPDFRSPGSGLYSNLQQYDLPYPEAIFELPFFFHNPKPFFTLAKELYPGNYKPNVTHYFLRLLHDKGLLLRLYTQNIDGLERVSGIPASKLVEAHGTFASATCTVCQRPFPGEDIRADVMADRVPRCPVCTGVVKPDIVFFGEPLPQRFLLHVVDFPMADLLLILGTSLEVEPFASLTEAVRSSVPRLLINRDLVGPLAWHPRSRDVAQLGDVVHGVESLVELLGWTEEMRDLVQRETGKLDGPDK

How the values were obtained:
[1] = target: SIRT1, NAD+-dependent deacetylase domain (human); experiment: ITC; 25 °C, MicroCal PEAQ-ITC; 200 μL of 50 μM protein in the cell titrated with 17 injections of 750 μM peptide; in the absence of NAD+; one set of binding sites model
[2] = target: SIRT5, NAD+-dependent deacetylase domain (human); experiment: as above
[3] = target: Histone H3K4cr peptide (Homo sapiens) (UniProt P68431); conditions: cited from earlier work
[4] = target: CobBΔ (E. coli CobB residues 38-279) (E. coli) (UniProt P75960); experiment: ITC; 25 °C, MicroCal PEAQ-ITC; 50 μM protein in the cell titrated with 17 injections of 750 μM peptide; in the absence of NAD+; 'one set of binding sites' model
[5] = target: SIRT2Δ (human SIRT2 residues 34-356) (human) (UniProt Q8IXJ6); experiment: as above

Substance: Histone H3(1–15)K9bhb peptide (R/S racemic mixture) (from UniProt P68431 2-16)
- Kd [1]: 729 µM
- Kd [2]: 1120 µM

Substance: SIRT3 (from UniProt Q9NTG7)
- Kd [3]: 25.1 µM

Substance: histone H3(1-15)K9bhb peptide (racemic mixture) (from UniProt P68431 2-16)
- Kd [4]: 1.9 µM

Substance: histone H3(1-15)K9cr peptide (from UniProt P68431 2-16)
- Kd [5]: 81.3 µM
